Data taken from ChEMBL document CHEMBL1129026, “Rapid microscale synthesis, a new method for lead optimization using robotics and solution phase chemistry: application to the synthesis and optimization of corticotropin-releasing factor1 receptor antagonists” (J Med Chem, 1996).

Target: T1, Corticotropin-releasing factor receptor 1 (Homo sapiens, UniProt P34998)
T1 sequence (P34998 whole entry): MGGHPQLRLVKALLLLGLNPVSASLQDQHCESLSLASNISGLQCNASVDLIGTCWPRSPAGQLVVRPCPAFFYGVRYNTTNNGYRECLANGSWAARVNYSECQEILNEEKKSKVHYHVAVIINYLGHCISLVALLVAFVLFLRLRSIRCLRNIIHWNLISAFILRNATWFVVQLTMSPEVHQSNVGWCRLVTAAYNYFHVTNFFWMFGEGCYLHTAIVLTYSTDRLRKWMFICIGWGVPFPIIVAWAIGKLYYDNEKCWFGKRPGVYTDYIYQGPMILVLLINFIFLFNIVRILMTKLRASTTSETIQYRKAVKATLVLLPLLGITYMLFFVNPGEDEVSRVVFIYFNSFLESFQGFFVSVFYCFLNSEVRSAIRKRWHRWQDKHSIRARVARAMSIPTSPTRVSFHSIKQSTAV
Assay: Inhibition of [125I]CRF binding to human corticotropin releasing factor receptor 1

- Ki: 1050 nM
SMILES: Cc1cc(C)c(Nc2nc(C)nc(N3CC=CCC3)n2)c(C)c1
